From patent US9745348B2 (The University of Manchester, priority 2011, dated 2017) come the findings set out here.

For the data set, the system named is fibroblasts Adult (HDFa) cells. The data set is described as follows: MTT viability of fibroblasts over three days. It counts as cell-based, human. The note with it: surfactant 1%. As to the method:
MTT assay: Cell viability and proliferation is widely assessed by the MTT assay as already described previously.
The fibroblasts cells, Neonatal (HDFn) and Adult (HDFa), were both grown until greater than 80% confluent. […] After 24 hour incubation the culture medium was replaced with fresh medium containing an appropriate amount of the peptide for investigation.
The viability of the fibroblasts, Adult (HDFa) and Neonatal (HDFn) cells in the presence of surfactants was tested by MTT assay over three days relative to control wells containing cells only.

Consider cocamidopropyl aetaine [Tt], for which the “MTT results (relative MTT reading)” value by setting is: (Day 1) 0.01; (Day 2) 0.00; (Day 3) 0.00.
